The numbers were not newly measured in publication PMC7383075 (Journal of Nuclear Medicine, 2020), which cites them from elsewhere.

The data set deals with glioblastomas. The note with it: ref [31]. From the text:
Contributing to the potential for clinical translation of this tracer is the use of the NIR fluorophore IRDye 800CW. This dye is widely used in the development of targeted fluorescence imaging approaches, and several studies already have shown the first successful clinical applications using this fluorophore. […] Also, IRDye 800CW coupled to the monoclonal antibody cetuximab was successfully used fo ...

As to “IRDye 800CW coupled to the monoclonal antibody cetuximab: IRDye 800CW coupled to the monoclonal antibody cetuximab”, the “detection of glioblastomas” value is “successfully used for detection of glioblastomas”.
